Results published in PubChem BioAssay AID540364 (The Scripps Research Institute Molecular Screening Center, 2011).
The entries are a selection whose mix differs from that of the whole data set. The source made the active and inactive calls.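 How the source made its calls: active means activation above the average of all compounds screened plus 3 SD, cutoff fixed separately per campaign (cut at about 7.5% in these data); inactive means the rest.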

Assay: FXN promoter activators, primary screen, cell-based, luciferase luminescence, HEK293 lucGAA850 (AID 540364);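 further: 0% = DMSO wells and 100% = 10 µM SAHA wells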
Details: HEK293 lucGAA850 FXN promoter luciferase reporter, 24 h; at 6 µM; active compounds read high; percent of 10 µM SAHA response

Row | Compound | activation
1 | CP(=O)(Nc1ccc2c(c1)OCCO2)Oc1ccccc1 (configuration not stated) | inactive: -4%
2 | Cc1ccccc1NP(C)(=O)Nc1ccccc1C | inactive: -1.15%
3 | CCN(CC)CC(O)COC(=O)C(O)(c1ccccc1)C1CCCCC1 (configuration not stated) | inactive: -1.9%
4 | COc1ccc(OP(C)(=O)Nc2ccc(Br)cc2)cc1 (configuration not stated) | inactive: -0.85%
5 | COc1ccccc1OP(C)(=O)Nc1c(C)n(C)n(-c2ccccc2)c1=O (configuration not stated) | inactive: -1.78%
6 | O=C(OCCCN1CCCC1)C(O)(c1ccccc1)C1CCCCC1 (configuration not stated) | inactive: 1.5%
7 | CP(=O)(Oc1ccccc1)N1CCOC1=O (configuration not stated) | inactive: 0.27%
8 | CCc1ccc(OP(C)(=O)Nc2cccnc2)cc1 (configuration not stated) | inactive: -0.45%
9 | CC(C)(C)c1ccc(OP(C)(=O)O)cc1 | inactive: -1.34%
10 | COc1ccccc1OP(C)(=O)Nc1ccccc1Br (configuration not stated) | inactive: -0.11%
11 | CP(=O)(Nc1ccc(Cl)cc1)Oc1ccc(F)cc1 (configuration not stated) | inactive: 0.55%
12 | CN(C)C(=O)c1c([N+](=O)[O-])cc([N+](=O)[O-])cc1[N+](=O)[O-] | inactive: -3.06%
13 | CCOC(=O)c1ccc(NP(C)(=O)Oc2ccc(Cl)cc2)cc1 (configuration not stated) | inactive: -2.33%
14 | CP(=O)(OC12CC3CC(CC(C3)C1)C2)OC12CC3CC(CC(C3)C1)C2 | inactive: -0.8%
15 | O=C1C(O)=C([N+](=O)[O-])C(=O)C(O)=C1[N+](=O)[O-] | inactive: -1.8%
16 | Cc1cc(C)cc(OP(C)(=O)Nc2cccc(C(F)(F)F)c2)c1 (configuration not stated) | inactive: 0.34%
17 | COc1ccccc1OP(C)(=O)Nc1ccc(C)c(C)c1 (configuration not stated) | inactive: 0%
18 | COc1ccc(OP(C)(=O)Nc2ccccc2Br)cc1 (configuration not stated) | inactive: 0.36%
19 | CP(=O)(OCCOc1ccccc1)OCCOc1ccccc1 | inactive: 1.45%
20 | CP(=O)(Nc1ccc(Cl)cc1Cl)Oc1ccccc1 (configuration not stated) | inactive: 0.99%
21 | CCCCCCCCCCCCCCCC1C[N+](C)(C)CCOP(C)(=O)O1 (configuration not stated) | inactive: -0.83%
22 | COc1ccccc1OP(C)(=O)Nc1ccc(Br)cc1 (configuration not stated) | inactive: 1.79%
23 | COc1ccc(OP(C)(=O)Nc2ccccn2)cc1 (configuration not stated) | inactive: 1.31%
24 | CN(C)CCOC(=O)C(O)(c1ccccc1)C1CCCC1 (configuration not stated) | inactive: 0.53%

Row | Compound | activation
25 | O=[N+]([O-])c1cc([N+](=O)[O-])c(Nc2ccccn2)c([N+](=O)[O-])c1 | inactive: 2.37%
26 | Cc1c(NP(C)(=O)Oc2ccc(C(C)C)cc2)c(=O)n(-c2ccccc2)n1C (configuration not stated) | inactive: 0.62%
27 | CP(=O)(Nc1ccccn1)Oc1ccccc1 (configuration not stated) | inactive: 1.12%
28 | COc1ccccc1OP(C)(=O)Nc1ccc(C)cc1C (configuration not stated) | inactive: 0%
29 | CCc1ccc(OP(C)(=O)O)cc1 | inactive: -1.26%
30 | CCN(CC)CCCOC(=O)C(O)(c1ccccc1)c1ccccc1 | inactive: 1.3%
31 | O=[N+]([O-])c1cc([N+](=O)[O-])c(Nc2cccnc2)c([N+](=O)[O-])c1 | inactive: 0.18%
32 | O=[N+]([O-])c1ccc2c(c1)C=Nc1ccccc1O2 | inactive: 3.4%
33 | CC(C)(C)c1ccc(OP(C)(=O)Nc2ccc(SC(F)(F)F)cc2)cc1 (configuration not stated) | inactive: 0.88%
34 | Cc1cccc(C)c1OP(C)(N)=O (configuration not stated) | inactive: 0.57%
35 | COc1ccccc1OP(C)(=O)Nc1ccc(C)cc1 (configuration not stated) | inactive: 0.07%
36 | Cc1ccc(NP(C)(=O)Oc2ccccc2)c(C)c1 (configuration not stated) | inactive: 2.57%
37 | CCOC(=O)c1ccc(NP(C)(=O)Oc2ccccc2)cc1 (configuration not stated) | inactive: 0.88%
38 | Cc1cc(C)cc(OP(C)(N)=O)c1 (configuration not stated) | inactive: -1.58%
39 | COc1ccccc1OP(C)(=O)Nc1cc(Cl)ccc1C (configuration not stated) | inactive: -0.51%
40 | COc1ccc(OP(C)(=O)Nc2cccc(F)c2)cc1 (configuration not stated) | inactive: -0.34%
41 | CP(=S)(Nn1cnnc1)Oc1ccccc1 (configuration not stated) | inactive: 1.13%
42 | CP(=O)(Nc1ccccc1Br)Oc1ccccc1 (configuration not stated) | inactive: 1.3%
43 | COc1ccccc1OP(C)(=O)Nc1ccccc1 (configuration not stated) | inactive: 0.58%
44 | CP(=O)(Nc1ccc(SC(F)(F)F)cc1)Oc1ccc(Cl)cc1 (configuration not stated) | inactive: 0.9%
45 | Cc1ccc(Nc2c([N+](=O)[O-])cc([N+](=O)[O-])cc2[N+](=O)[O-])cc1 | inactive: -0.22%
46 | Cc1cccc(C)c1OP(C)(=O)Nc1ccc(SC(F)(F)F)cc1 (configuration not stated) | inactive: 2.39%
47 | CP(=O)(Oc1ccccc1)OC(c1ccccc1)C(F)(F)F (configuration not stated) | inactive: -0.64%
48 | CCc1ccc(OP(C)(=O)N2CCN(c3ccc([N+](=O)[O-])cc3)CC2)cc1 (configuration not stated) | inactive: -3.56%

Row | Compound | activation
49 | CP(=O)(NC(=O)Nc1ccccc1)Oc1ccccc1 (configuration not stated) | inactive: 1.9%
50 | Cc1cc(C)cc(OP(C)(=O)Nc2ccc(SC(F)(F)F)cc2)c1 (configuration not stated) | inactive: 1.13%
51 | O=[N+]([O-])c1cc([N+](=O)[O-])c(O)c([N+](=O)[O-])c1.c1ccc(Oc2ccncc2)cc1 | inactive: 1.07%
52 | CCOC(=O)c1ccc(NP(C)(=O)Oc2ccc(OC)cc2)cc1 (configuration not stated) | inactive: 1.73%
53 | CCOP(C)(=S)SCC(=O)NC(C)C(=O)O (configuration not stated) | inactive: -0.3%
54 | CP(=O)(Nc1ccccn1)Oc1ccc(Cl)cc1 (configuration not stated) | inactive: -1.94%
55 | O=[N+]([O-])c1cc([N+](=O)[O-])c(-n2nnc3ccccc32)c([N+](=O)[O-])c1 | inactive: 1.84%
56 | O=[N+]([O-])c1cc([N+](=O)[O-])c(-c2cnn(-c3ccccc3)c2)c([N+](=O)[O-])c1 | inactive: 0.17%
57 | Cc1nc2ccc3ccccc3c2s1.O=[N+]([O-])c1cc([N+](=O)[O-])c(O)c([N+](=O)[O-])c1 | inactive: -0.86%
58 | O=[N+]([O-])c1cc([N+](=O)[O-])c(Nc2nnnn2CCO)c([N+](=O)[O-])c1 | inactive: 1.48%
59 | CC1=C2N=C(C=C3N=C(C(C)=C4[N-][C@@](C)([C@@H]5N=C1[C@](C)(CCC(=O)NC[C@@H](C)OP(=O)([O-])O[C@H]1[C@@H](O)[C@@H](n6cnc7cc(C)c(C)cc76)O[C@@H]1CO)[C@H]5CC(N)=O)[C@@](C)(CC(N)=O)[C@@H]4CCC(N)=O)[C@@](C)(CC(N)=O)[C@@H]3CCC(N)=O)C(C)(C)[C@@H]2CCC(N)=O.[C-]#N.[Co+3] | inactive: -0.29%
60 | CCOC(=O)C(CC)C1=NC(C)(C)Cc2ccccc21.O=[N+]([O-])c1cc([N+](=O)[O-])c(O)c([N+](=O)[O-])c1 (configuration not stated) | inactive: -0.49%
61 | CN1CCCCC1COC(=O)C1(O)c2ccccc2CCc2ccccc21 (configuration not stated) | inactive: -0.27%
62 | COc1ccccc1OP(C)(=O)Nc1c(C)cccc1C (configuration not stated) | inactive: -0.49%
63 | CP(=O)(Nc1ccc(SC(F)(F)F)cc1)Oc1ccccc1 (configuration not stated) | inactive: 0.66%
64 | CCCOc1ccc(NP(C)(=O)Oc2ccc(Cl)cc2)cc1 (configuration not stated) | inactive: 1.73%
65 | O=C(O)c1cccc(Nc2c([N+](=O)[O-])cc([N+](=O)[O-])cc2[N+](=O)[O-])c1 | inactive: -0.14%
66 | CC1=NCCc2c1[nH]c1ccccc21.O=[N+]([O-])c1cc([N+](=O)[O-])c(O)c([N+](=O)[O-])c1 | inactive: -0.43%
67 | COc1ccccc1OP(C)(=O)Nc1cccc(Br)c1 (configuration not stated) | inactive: 0.47%
68 | CCOC(=O)c1ccc(NP(C)(=O)Oc2cc(C)cc(C)c2)cc1 (configuration not stated) | inactive: -2.53%
69 | Cc1cc(C)cc(OP(C)(=O)Nc2ccc(C)cc2C)c1 (configuration not stated) | inactive: 1.27%
70 | Cc1ccc(C)c(NP(C)(=O)Oc2ccccc2)c1 (configuration not stated) | inactive: 1.28%
71 | CP(=O)(Nc1cccc(Br)c1)Oc1ccccc1 (configuration not stated) | inactive: -2.28%
72 | Cc1cc(C)cc(OP(C)(=O)Nc2ccccn2)c1 (configuration not stated) | inactive: -1.07%
